Assay [1] has as its target Peptide GNT-07. The assay is described as follows: peptide ELISA, plate 1. For orientation: ELISA stands for enzyme-linked immunosorbent assay.
In assay [2] the target is Peptide GNT-07. Kind of assay: peptide ELISA, plate 2.
Assay [3] deals with Peptide GNT-08. Kind of assay: peptide ELISA, plate 1 overview.
Assay [4] has as its target Peptide GNT-13. Kind of assay: peptide ELISA, plate 1 overview.
The target in assay [5] is Peptide GNT-14. The assay is described as follows: peptide ELISA, plate 1 overview.
In a further assay the target is Peptide GNT-04. Kind of assay: peptide ELISA, plate 2 overview.
For the next assay, the target named is Peptide GNT-062. The assay is described as follows: peptide ELISA, plate 2 overview.
Assay [6] has as its target Peptide GNT-08. The assay is described as follows: peptide ELISA, plate 2 overview.
The target in the next assay is Peptide GNT-10. Kind of assay: peptide ELISA, plate 2 overview.
Assay [7] addresses Peptide GNT-13. The assay is described as follows: peptide ELISA, plate 2 overview.
For assay [8], the target named is Peptide GNT-14. Kind of assay: peptide ELISA, plate 2 overview.

This passage reports Elisa reading results from US20090214547A1.

Values joined by “and” are separate entries in the source; they are usually repeats but may differ in a detail not shown here. Equal values may be shown once.

B1: 26-5F12.1 (antibody, V domains shown)
VH: VKLQESGAEVKKPGASVKVSCTASGYIFTSYAIHWVRQAPGQRLEWMGWINAGYGNTKYSQKFQGRVSITRDKSASTAYMELSSLRSEDTAVYYCARRGQQLAFDYWGQGTTVTVSS
VL: [about 100 residues omitted here]
Turning to B1, the Elisa reading is 0.6 and 0.21 and 0.47 in the assay with Peptide GNT-07 [1]; 0.132 with Peptide GNT-07 [2]; 0.89 with Peptide GNT-08 [3]; 0.09 with Peptide GNT-13 [4]; 0.09 with Peptide GNT-14 [5]; 0.26 in the assay with Peptide GNT-04. Moreover, the Elisa reading came to 0.11 in the assay with Peptide GNT-062; 0.76 with Peptide GNT-08 [6]; 0.09 in the assay with Peptide GNT-10; 0.09 with Peptide GNT-13 [7]; 0.09 in the assay with Peptide GNT-14 [8].
